# Experimental data reported in PubChem BioAssay AID588676 (Johns Hopkins Ion Channel Center, 2011).
# Protein sequences, listed by entry. Tags and fused reporters are not part of them.
# UniProt Q96LB2, whole entry: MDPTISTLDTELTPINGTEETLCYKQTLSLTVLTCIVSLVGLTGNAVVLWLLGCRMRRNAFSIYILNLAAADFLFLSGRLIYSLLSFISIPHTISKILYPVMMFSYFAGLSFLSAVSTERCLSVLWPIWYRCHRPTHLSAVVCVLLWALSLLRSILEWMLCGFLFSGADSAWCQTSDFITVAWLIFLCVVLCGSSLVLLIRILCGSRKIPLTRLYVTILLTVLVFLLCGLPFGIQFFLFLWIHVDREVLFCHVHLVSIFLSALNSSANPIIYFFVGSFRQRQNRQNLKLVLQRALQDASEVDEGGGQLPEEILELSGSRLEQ
# This is a selection; strong and weak results do not stand in their true shares. Calls of active or inactive are those of the source.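 The calls were made as follows: active = calcium-response B-score plate-corrected more than 3 library SD below zero, starting fluorescence within 5 deviations, no agonist response on first addition; inactive = the rest.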
# Target: Mas-related G-protein coupled receptor member X1 (Homo sapiens) (UniProt Q96LB2)
# Assay: antagonists of human MrgX1 receptor, primary screen, HEK293 cells, Fluo-4 calcium flux (AID 588676)
# Details: Fluo-4, BAM8-22 antagonism, at 10 µM
row,SMILES,outcome
1,CCN(CC)CCCOC(=O)C(O)(c1ccccc1)C1CCCCC1 (centres undefined),inactive
2,O=C(OC1CN2CCC1CC2)c1ccccc1 (centres undefined),inactive
3,CP(=O)(Nc1ccccc1)Oc1ccc(F)cc1 (centres undefined),inactive
4,O=[N+]([O-])c1cc([N+](=O)[O-])c(OC2CCCCC2O)c([N+](=O)[O-])c1 (centres undefined),inactive
5,CCCCCOc1ccc(NP(C)(=O)Oc2ccc(Cl)cc2Cl)cc1 (centres undefined),inactive
6,CN(C)C(=O)Oc1noc2ccccc12,inactive
7,Cc1ccccc1OP(=O)(Nc1ccccn1)Oc1ccccc1C,inactive
8,COc1ccc(OP(C)(=O)Nc2cccc(Br)c2)cc1 (centres undefined),inactive
9,CN(C)C1(CNC(=O)c2ccc(Cl)c(S(N)(=O)=O)c2)CCCCC1,inactive
10,O=P(Nc1ccccn1)(c1ccc(Br)cc1)c1ccc(Br)cc1,inactive
11,C[C@H]1OP(=O)(Oc2ccccc2)[C@H](O)[C@H](O)[C@H]1N=[N+]=[N-] (some centres undefined),inactive
12,O=P(Nc1nc2ccccc2s1)(c1ccccc1)c1ccccc1,inactive
13,CN(C)CCOC(=O)C(O)(c1ccccc1)C1CCCCC1 (centres undefined),inactive
14,COc1ccc(NP(C)(=O)Oc2ccccc2OC)cc1 (centres undefined),inactive
15,O=[N+]([O-])c1ncn(CCn2cnc([N+](=O)[O-])n2)n1,inactive
16,O=[N+]([O-])c1ccc(OP2(=O)COCCO2)cc1 (centres undefined),inactive
17,CC(=O)NC(SC(=S)N(C)C)C(Cl)(Cl)Cl (centres undefined),inactive
18,O=[N+]([O-])c1cc([N+](=O)[O-])c(NCC2CCS(=O)(=O)C2)c([N+](=O)[O-])c1 (centres undefined),inactive
19,O=[As](O)(c1ccccc1)c1ccc(O)cc1,inactive
20,C(Cc1nn[nH]n1)Cc1nn[nH]n1,inactive
21,Nc1ccc([As](=O)(O)c2ccc([N+](=O)[O-])cc2)cc1,inactive
22,O=C(OC1CN2CCC1CC2)c1cccc(Cl)c1 (centres undefined),inactive
23,CP(=O)(Nc1ccc(SC(F)(F)F)cc1)Oc1ccc(F)cc1 (centres undefined),inactive
24,O=P(Nc1nccs1)(c1ccccc1)c1ccccc1,inactive

row,SMILES,outcome
1,CC(C)C(=O)NC(Sc1ccccc1)C(Cl)(Cl)Cl (centres undefined),inactive
2,CCOP(C)(=S)SCC(=O)NC(C)(CC)C(=O)O (centres undefined),inactive
3,c1nnnn1CCn1cnnn1,inactive
4,CP(=O)(Nc1ccc2c(c1)OCCO2)Oc1ccccc1 (centres undefined),inactive
5,Cc1ccccc1NP(C)(=O)Nc1ccccc1C,inactive
6,COc1ccc(C2=NCC(CBr)S2)cc1 (centres undefined),inactive
7,COc1ccc(OP(C)(=O)Nc2ccc(Br)cc2)cc1 (centres undefined),inactive
8,CCN(CC)CC(O)COC(=O)C(O)(c1ccccc1)C1CCCCC1 (centres undefined),inactive
9,O=C(OCCCN1CCCC1)C(O)(c1ccccc1)C1CCCCC1 (centres undefined),inactive
10,CC(=O)N1C2C3N(C(C)=O)C1C1N(C(C)=O)C(C(N1C(C)=O)N3C(C)=O)N2C(C)=O,inactive
11,O=[N+]([O-])c1cccc2n[nH]nc12,inactive
12,COc1ccccc1OP(C)(=O)Nc1c(C)n(C)n(-c2ccccc2)c1=O (centres undefined),inactive
13,CCc1ccc(OP(C)(=O)Nc2cccnc2)cc1 (centres undefined),inactive
14,O=[N+]([O-])c1cc([N+](=O)[O-])c(CCNc2ccccc2)c([N+](=O)[O-])c1,inactive
15,Cc1ccc(NP(=O)(Oc2ccccc2)Oc2ccccc2)nc1,inactive
16,CP(=O)(Oc1ccccc1)N1CCOC1=O (centres undefined),inactive
17,C[N+]1=C2C=CC=CC=C2SC12C([N+](=O)[O-])=CC([N+](=O)[O-])=C[C-]2[N+](=O)[O-] (centres undefined),inactive
18,COc1ccccc1OP(C)(=O)Nc1ccccc1Br (centres undefined),inactive
19,Nc1ccc([As](=O)(O)c2ccc(N)cc2)cc1,inactive
20,CC(C)(C)c1ccc(OP(C)(=O)O)cc1,inactive
21,CP(=O)(Nc1ccc(Cl)cc1)Oc1ccc(F)cc1 (centres undefined),inactive
22,CCN(/C(=N/P(=O)(N1CCOCC1)N1CCOCC1)N1CCOCC1)c1ccc(OC)cc1,inactive
23,CN(C)C(=O)OCCc1n(C)cc[n+]1C,inactive
24,CC(C)=N/N=C(\N)N[N+](=O)[O-],inactive

row,SMILES,outcome
1,CN(C)C(=O)c1c([N+](=O)[O-])cc([N+](=O)[O-])cc1[N+](=O)[O-],inactive
2,CC1CCN(C(=O)Oc2c(Cl)cc(Cl)c3cccnc23)CC1,inactive
3,Nc1ccc2c(ccc3cccnc32)n1.O=[N+]([O-])c1cc([N+](=O)[O-])c(O)c([N+](=O)[O-])c1,inactive
4,O=C(Nc1cc([As](=O)(O)O)ccc1O)c1ccccc1,inactive
5,CCOC(=O)c1ccc(NP(C)(=O)Oc2ccc(Cl)cc2)cc1 (centres undefined),inactive
6,CP(=O)(OC12CC3CC(CC(C3)C1)C2)OC12CC3CC(CC(C3)C1)C2,inactive
7,CC(C)(C)C(=O)NC(Sc1ccncn1)C(Cl)(Cl)Cl (centres undefined),inactive
8,O=[N+]([O-])c1ncn(CCn2ncnc2[N+](=O)[O-])n1,inactive
9,O=[N+]([O-])c1cccc(NC2=NCC(CBr)S2)c1 (centres undefined),inactive
10,O=C(O)CNc1ccc([As](=O)(O)O)cc1,inactive
11,CC(=O)Nc1ccc([As](=O)(O)O)cc1,inactive
12,O=C(O)c1ccccc1[As](=O)(O)O,inactive
13,O=P(Nc1nc2ccc(Cl)cc2s1)(c1ccccc1)c1ccccc1,inactive
14,Cc1cc(C)cc(OP(C)(=O)Nc2cccc(C(F)(F)F)c2)c1 (centres undefined),inactive
15,COc1ccccc1OP(C)(=O)Nc1ccc(C)c(C)c1 (centres undefined),inactive
16,CN(C(=O)Cc1ccc(Cl)c(Cl)c1)[C@H]1CCCC[C@@H]1N1CCCC1,inactive
17,Cc1ccc(NP(=O)(Oc2ccccc2F)Oc2ccccc2F)nc1,inactive
18,Cc1cc(SC(NC(=O)c2ccc(F)cc2)C(Cl)(Cl)Cl)ncn1 (centres undefined),inactive
19,CCOP(=O)(Nc1ccccc1)OCC,inactive
20,COc1ccc(OP(C)(=O)Nc2ccccc2Br)cc1 (centres undefined),inactive
21,Cc1nc2ccc3ccccc3c2o1.O=[N+]([O-])c1cc([N+](=O)[O-])c(O)c([N+](=O)[O-])c1,inactive
22,O=[N+]([O-])c1cc([N+](=O)[O-])c(CCN2CCOCC2)c([N+](=O)[O-])c1,inactive
23,CCN(N=Nc1nonc1N)c1nonc1N,inactive
24,CP(=O)(Nc1ccc(Cl)cc1Cl)Oc1ccccc1 (centres undefined),inactive

row,SMILES,outcome
1,CP(=O)(OCCOc1ccccc1)OCCOc1ccccc1,inactive
2,Nc1cccc2ccc([As](=O)(O)O)cc12,inactive
3,NC(=O)c1cc([N+](=O)[O-])cc([N+](=O)[O-])c1N,inactive
4,Cc1ccc(N/C(=N/P(=O)(N2CCOCC2)N2CCOCC2)N2CCOCC2)cc1,inactive
5,CN(C(=O)Cc1ccc(Cl)c(Cl)c1)[C@H]1CCCC[C@H]1N1CCCC1,inactive
6,COc1ccccc1OP(C)(=O)Nc1ccc(Br)cc1 (centres undefined),inactive
7,Cc1ccc(OP(=O)(Nc2nccs2)Oc2ccc(C)cc2)cc1,inactive
8,COc1ccccc1OP(=O)(Nc1ccc(C)cn1)Oc1ccccc1OC,inactive
9,COc1ccc(OP(C)(=O)Nc2ccccn2)cc1 (centres undefined),inactive
10,CN1CCCC(OC(=O)C(c2ccccc2)c2ccccc2)C1 (centres undefined),inactive
11,CN(C)CCOC(=O)C(O)(c1ccccc1)C1CCCC1 (centres undefined),inactive
12,Clc1ccc(Cl)c(NC2=NCC(CBr)S2)c1 (centres undefined),inactive
13,Nc1cc(N)c2nonc2c1[N+](=O)[O-],inactive
14,Cc1c(NP(C)(=O)Oc2ccc(C(C)C)cc2)c(=O)n(-c2ccccc2)n1C (centres undefined),inactive
15,O=[N+]([O-])c1cc([N+](=O)[O-])c(Nc2ccccn2)c([N+](=O)[O-])c1,inactive
16,CC(C)CC(=O)NC(Sc1ccc(Cl)cc1)C(Cl)(Cl)Cl (centres undefined),inactive
17,O=C(NC(Sc1ccncn1)C(Cl)(Cl)Cl)c1ccccc1 (centres undefined),inactive
18,Cc1c2non([O-])c-2c(C)[n+](=O)[n+]1[O-],inactive
19,Oc1ccccc1CNc1ccccn1,inactive
20,COc1ccccc1OP(C)(=O)Nc1ccc(C)cc1C (centres undefined),inactive
21,CP(=O)(Nc1ccccn1)Oc1ccccc1 (centres undefined),inactive
22,CCc1ccc(OP(C)(=O)O)cc1,inactive
